Data taken from US20130071390A1.

Columns and labels:
Test in all cases: FcγR ELISA
[1] = molecular target: FcγRIIIa-V158 (Pichia pastoris produced) (UniProt P08637)
[2] = molecular target: histidine-tagged extracellular domain of human Fc gamma receptor IIb/c (Pichia pastoris produced) (human) (UniProt P31994)
[3] = molecular target: FcγRIIa extracellular domain (Pichia pastoris produced) (human) (UniProt P12318)
[4] = molecular target: FcγRIIIa-F158 (Pichia pastoris produced) (UniProt P08637)

Substance | fold increase in affinity vs commercial HUMIRA [1] | fold increase in affinity vs commercial HUMIRA [2] | fold increase in affinity vs commercial HUMIRA [3] | fold increase in affinity vs commercial HUMIRA [4]
anti-TNF IgG1 wildtype antibody (GFI774) produced in GFI 5.0 | 1.8 fold and 2 fold | 2 fold |  | 
anti-TNF IgG1 wildtype antibody (GFI774) produced in GFI 5.0 (antibody; other documents disagree on this pair) |  |  | 30 fold | 13 fold and 15 fold

Where “and” joins values, the source holds several entries; their conditions need not be identical. Equal values may be shown once.
